What is called Ki is a dissociation constant, usually derived from enzyme kinetics or from competition with a known ligand.

The chains behind the UniProt entries cited, without tags or fusion partners.
UniProt P14416, whole entry: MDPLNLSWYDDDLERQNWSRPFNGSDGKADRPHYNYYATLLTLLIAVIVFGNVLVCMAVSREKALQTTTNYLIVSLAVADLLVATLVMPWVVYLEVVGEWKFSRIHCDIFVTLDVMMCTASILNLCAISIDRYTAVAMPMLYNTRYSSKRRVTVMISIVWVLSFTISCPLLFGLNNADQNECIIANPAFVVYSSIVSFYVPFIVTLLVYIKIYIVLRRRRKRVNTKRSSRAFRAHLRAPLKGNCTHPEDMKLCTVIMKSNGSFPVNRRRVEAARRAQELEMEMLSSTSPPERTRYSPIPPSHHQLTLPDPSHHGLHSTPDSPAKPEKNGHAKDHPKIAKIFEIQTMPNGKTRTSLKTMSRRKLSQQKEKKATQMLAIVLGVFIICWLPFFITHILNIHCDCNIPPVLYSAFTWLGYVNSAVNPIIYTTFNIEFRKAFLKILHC

The structures appear in SMILES notation.

These results are taken from ChEMBL document CHEMBL1129625, “11-substituted (R)-aporphines: synthesis, pharmacology, and modeling of D2A and 5-HT1A receptor interactions” (J Med Chem, 1996).

The assay has as its target D(2) dopamine receptor (Homo sapiens, UniProt P14416). Briefly: Displacement of [3H]raclopride from human Dopamine receptor D2A.

The compound `CCCN1CCc2cccc3c2[C@H]1Cc1cccc(O)c1-3` registered an inhibition constant (Ki) of 12.7 nM.
